{"source": "paper PMC6646333", "about": "(Nature Communications, 2019)", "settings": "statement in the reply to reviewer 1, no method given", "data": [{"substance": "Leu10-teixobactin", "values": [{"measurement": "Solubility compared with teixobactin", "value": "worse than teixobactin"}]}]}
